Results as given in US20040150788A1, “Antimicrobial lenses, processes to prepare them and methods of their use” (priority 2002, published 2004).

Tests used:
[1] = CRC Handbook of Chemistry and Physics, 74th edition (Table 4); cited from earlier work
[2] = Solubility-product constant (Ksp) and molar solubility of metal salts in pure water at 25° C.; details: derived from Ksp (Table 4)

Row | Substance | Ksp In pure H2O at 25° C. [1] | Molar Solubility [2] [µM]
1 | Silver nitrate | 51.6 | 
2 | Silver oxide | 7.06 × 10^−13 | 112
